Blank lines part the entries; values can stand above or below the compound they belong to.
Key:
BACE1 [1] = target: T1, BACE1 (Homo sapiens, UniProt P56817); experiment: In Vitro BACE Cell-based Assay (HEK cell assay): Aβ40 in conditioned medium of cells stably expressing Amyloid Precursor Protein, sandwich ELISA; details: read-out: HEK cell assay
BACE1 [2] = target: T1, BACE1; experiment: In Vitro Enzymatic BACE FRET (Fluorescence Resonance Energy Transfer) Assay; format: biochemical; details: read-out: BACE1 FRET assay

Chains of the proteins cited; added tags and fusions are not shown. Residues count along the entry.
UniProt P56817, 46-501 limits assumed: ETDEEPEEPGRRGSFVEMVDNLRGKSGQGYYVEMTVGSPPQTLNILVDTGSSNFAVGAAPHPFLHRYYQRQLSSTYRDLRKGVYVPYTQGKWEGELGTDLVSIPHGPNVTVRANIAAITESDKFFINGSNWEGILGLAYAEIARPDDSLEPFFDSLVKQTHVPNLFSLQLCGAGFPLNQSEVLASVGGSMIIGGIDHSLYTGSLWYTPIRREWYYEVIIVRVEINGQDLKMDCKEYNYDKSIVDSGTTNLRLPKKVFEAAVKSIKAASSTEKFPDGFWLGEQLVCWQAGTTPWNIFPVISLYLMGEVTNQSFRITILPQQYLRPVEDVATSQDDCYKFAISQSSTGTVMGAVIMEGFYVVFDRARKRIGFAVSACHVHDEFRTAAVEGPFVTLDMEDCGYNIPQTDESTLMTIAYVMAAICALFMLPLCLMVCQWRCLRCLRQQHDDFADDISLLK

- IC50 (BACE1 [1]; Table III, IC50's in uM ranges): < 0.1 µM
- IC50 (BACE1 [2]; Table III, IC50's in uM ranges): 0.1 to 1 µM
SMILES: CN(C)CC#Cc1ccc2c(c1)[C@]1(COC(N)=N1)c1cc(-c3cncnc3)ccc1O2

- IC50 (BACE1 [1]; Table IV, class symbols): > 5 µM
- IC50 (BACE1 [2]; Table IV, class symbols): > 5 µM
SMILES: NC1=N[C@]2(CO1)c1ccccc1Oc1ccc(C(=O)NCC3CCCCC3)cc12

- IC50 (BACE1 [1]): 0.1 to 1 µM
- IC50 (BACE1 [2]): 0.1 to 1 µM
SMILES: NC1=N[C@]2(CO1)c1cc(NC3CCOCC3)ccc1Oc1ccc(-c3cncnc3)cc12

From patent publication US8426447B2, “Spiro-tricyclic ring compounds as beta-secretase modulators and methods of use” (Amgen Inc., priority 2008, dated 2013)
